The values that follow are results of earlier work, collected in PMC10215749, “Determination of the affinity constants for phage display albumin-binding peptides” (PeerJ, 2023).

For the data set the following is noted: ref Varshney et al. (2010); Dennis et al., 2002; Larsen et al., 2016; Cho et al., 2022; cited from earlier work. An excerpt: Human serum albumin (HSA) is a 67 KDa globular protein with a concentration of 3.4 to 5.4 g/dL in blood, accounting for about 60% of the total protein in blood serum. Its long half-life, 19∼20 days, makes HSA an ideal carrier to extend the half-lives of therapeutic proteins ([Varshney et al., 2010]; [Dennis et al., 2002]; [Larsen et al., 2016]; [Cho et al., 2022]). Both HSA fusion and HSA binding technologies have been developed to reduce the clearance rate of peptide and protein drugs. HSA fusion technologies, e.g. granulocyte colony-stimulating factor-HSA (Albugranin) ([Halpern et al., 2002] ...

As to HSA: 67 KDa globular protein, the half-life is given as 19∼20 days.
